Data: patent US9440982B2 (Eolas Therapeutics, Inc., priority 2012, dated 2016)

The chains behind the UniProt entries cited, without tags or fusion partners.
UniProt O43614, whole entry: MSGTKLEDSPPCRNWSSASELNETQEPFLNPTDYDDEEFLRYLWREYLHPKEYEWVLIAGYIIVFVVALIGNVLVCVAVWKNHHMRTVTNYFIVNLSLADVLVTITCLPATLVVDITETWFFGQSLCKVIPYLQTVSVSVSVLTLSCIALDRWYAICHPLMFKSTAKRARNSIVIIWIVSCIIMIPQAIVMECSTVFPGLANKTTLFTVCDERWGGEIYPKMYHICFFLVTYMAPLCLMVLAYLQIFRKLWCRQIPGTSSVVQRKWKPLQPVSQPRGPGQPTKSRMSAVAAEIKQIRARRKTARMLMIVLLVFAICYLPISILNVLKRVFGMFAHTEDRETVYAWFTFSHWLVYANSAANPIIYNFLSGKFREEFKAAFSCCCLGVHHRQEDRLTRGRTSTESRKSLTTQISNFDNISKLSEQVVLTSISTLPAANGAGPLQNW

The molecules below were run against T1, OX2 (Homo sapiens, UniProt O43614) (assay: Orexin receptor cell-based functional assay, [Ca2+]i by FLIPR, CHO-OX2 cells). Conditions: CHO-OX2 cells, [Ca2+]i by FLIPR, antagonist dose-range 0.1 nM-10 μM, EC90 of OXA; read-out: OX2.
T1 construct: expressed in transfected cells; host or cells: CHO (CHO-OX2, kept under selection antibiotic)

`Cc1ccc(-n2cnc(C)n2)c(C(=O)N2CCC[C@@H](C)[C@H]2CNc2ccc(C(F)(F)F)cn2)c1` [Example A17, ((2S,3R)-3-Methyl-2-(((5-(trifluoromethyl)pyridin-2-yl)amino)methyl)piperidin-1-yl)(5-methyl-2-(3-methyl-1H-1,2,4-triazol-1-yl)phenyl)methanone] and `Cc1ccc(-c2nccn2C)c(C(=O)N2CCC[C@@H](C)[C@H]2CNc2ccc(C(F)(F)F)cn2)c1` [Example A20, ((2S,3R)-3-Methyl-2-(((5-(trifluoromethyl)pyridin-2-yl)amino)methyl)piperidin-1-yl)(5-methyl-2-(1-methyl-1H-imidazol-2-yl)phenyl)methanone] cannot be ordered by IC50: greater than 4 µM for the first, greater than 4 µM for the second.

First: Cc1ccc(-c2ccn(C)n2)c(C(=O)N2CCC[C@@H](C)[C@H]2CNc2ccc(C(F)(F)F)cn2)c1 [Example A18, ((2S,3R)-3-Methyl-2-(((5-(trifluoromethyl)pyridin-2-yl)amino)methyl)piperidin-1-yl)(5-methyl-2-(1-methyl-1H-pyrazol-3-yl)phenyl)methanone]
Second: Cc1ccc(-c2cnccn2)c(C(=O)N2CCC[C@@H](C)[C@H]2CNc2ccc(C(F)(F)F)cn2)c1 [Example A19, ((2S,3R)-3-Methyl-2-(((5-(trifluoromethyl)pyridin-2-yl)amino)methyl)piperidin-1-yl)(5-methyl-2-(pyrazin-2-yl)phenyl)methanone]
The IC50 of the first is higher: greater than 4 µM for the first, 0.23 µM for the second.

First: COc1ccnc(-c2ccc(C)cc2C(=O)N2CCC[C@@H](C)[C@H]2CNc2ccc(C(F)(F)F)cn2)n1 [Example A21, (2-(4-Methoxypyrimidin-2-yl)-5-methylphenyl)((2S,3R)-3-methyl-2-(((5-(trifluoromethyl)pyridin-2-yl)amino)methyl)piperidin-1-yl)methanone]
Second: Cc1ccc(-c2nccs2)c(C(=O)N2CCC[C@@H](C)[C@H]2CNc2ccc(C(F)(F)F)cn2)c1 [Example A24, ((2S,3R)-3-Methyl-2-(((5-(trifluoromethyl)pyridin-2-yl)amino)methyl)piperidin-1-yl)(5-methyl-2-(thiazol-2-yl)phenyl)methanone]
The IC50 of the first is higher: greater than 4 µM for the first, 0.41 µM for the second. The second is the more potent here.

`Cc1ccc(-c2cncs2)c(C(=O)N2CCC[C@@H](C)[C@H]2CNc2ccc(C(F)(F)F)cn2)c1` [Example A25, ((2S,3R)-3-Methyl-2-(((5-(trifluoromethyl)pyridin-2-yl)amino)methyl)piperidin-1-yl)(5-methyl-2-(thiazol-5-yl)phenyl)methanone] and `Cc1nc(C(=O)N2CCC[C@H](C)[C@@H]2CNc2ccc(C(F)(F)F)cn2)c(-c2ccc(F)cc2)s1` [Example A43, (5-(4-Fluorophenyl)-2-methylthiazol-4-yl)((2R,3S)-3-methyl-2-(((5-(trifluoromethyl)pyridin-2-yl)amino)methyl)piperidin-1-yl)methanone] cannot be ordered by IC50: greater than 4 µM for the first, greater than 4 µM for the second.

`Cc1ccc(-n2cnc(C)n2)c(C(=O)N2CCC[C@@H](C)[C@H]2CNc2nc3cc(Cl)ccc3o2)c1` [Example A29, ((2S,3R)-2-(((5-Chlorobenzo[d]oxazol-2-yl)amino)methyl)-3-methylpiperidin-1-yl)(5-methyl-2-(3-methyl-1H-1,2,4-triazol-1-yl)phenyl)methanone] and `Cc1ccc(-c2ccnn2C)c(C(=O)N2CCC[C@@H](C)[C@H]2CNc2nc3cc(Cl)ccc3o2)c1` [Example A50, ((2S,3R)-2-(((5-Chlorobenzo[d]oxazol-2-yl)amino)methyl)-3-methylpiperidin-1-yl)(5-methyl-2-(1-methyl-1H-pyrazol-5-yl)phenyl)methanone] cannot be ordered by IC50: greater than 5 µM for the first, greater than 5 µM for the second.

First: Cc1ccc(-c2ccccn2)c(C(=O)N2CCC[C@@H](C)[C@H]2CNc2nc3cc(Cl)ccc3o2)c1 [Example A32, ((2S,3R)-2-(((5-Chlorobenzo[d]oxazol-2-yl)amino)methyl)-3-methylpiperidin-1-yl)(5-methyl-2-(pyridin-2-yl)phenyl)methanone]
Second: Cc1ccc(-c2ccc(C)nc2)c(C(=O)N2CCC[C@@H](C)[C@H]2CNc2nc3cc(Cl)ccc3o2)c1 [Example A38, ((2S,3R)-2-(((5-Chlorobenzo[d]oxazol-2-yl)amino)methyl)-3-methylpiperidin-1-yl)(5-methyl-2-(6-methylpyridin-3-yl)phenyl)methanone]
The IC50 of the first is lower: 0.42 µM for the first, greater than 5 µM for the second. The first is the more potent here.

`Cc1nc(C(=O)N2CCC[C@@H](C)[C@H]2CNc2ncc(Cl)cn2)c(-c2ccc(F)cc2)s1` [Example A41, ((2S,3R)-2-(((5-Chloropyrimidin-2-yl)amino)methyl)-3-methylpiperidin-1-yl)(5-(4-fluorophenyl)-2-methylthiazol-4-yl)methanone] and `Cc1ccc(-c2ccnc(C)c2)c(C(=O)N2CCC[C@@H](C)[C@H]2CNc2ccc(F)cn2)c1` [Example A53, ((2S,3R)-2-(((5-Fluoropyridin-2-yl)amino)methyl)-3-methylpiperidin-1-yl)(5-methyl-2-(2-methylpyridin-4-yl)phenyl)methanone] cannot be ordered by IC50: greater than 4 µM for the first, greater than 5 µM for the second.

`Cc1ccc(-c2cnn(C)c2)c(C(=O)N2CCC[C@@H](C)[C@H]2CNc2ccc(F)cn2)c1` [Example A44, ((2S,3R)-2-(((5-Fluoropyridin-2-yl)-amino)methyl)-3-methylpiperidin-1-yl)(5-methyl-2-(1-methyl-1H-pyrazol-4-yl)phenyl)methanone] and `Cc1ccc(NC[C@@H]2[C@H](C)CCCN2C(=O)c2cc(C)ccc2-c2cnn(C)c2)nc1` [Example A49, ((2S,3R)-3-Methyl-2-(((5-methylpyridin-2-yl)amino)methyl)piperidin-1-yl)(5-methyl-2-(1-methyl-1H-pyrazol-4-yl)phenyl)methanone] cannot be ordered by IC50: greater than 5 µM for the first, greater than 5 µM for the second.

`Cc1ccc(-n2nccn2)c(C(=O)N2CCC[C@@H](C)[C@H]2CNc2ccc(C#N)cn2)c1` [Example A46, 6-((((2S,3R)-3-Methyl-1-(5-methyl-2-(2H-1,2,3-triazol-2-yl)benzoyl)piperidin-2-yl)methyl)amino)nicotinonitrile] and `Cc1ccc(-n2nccn2)c(C(=O)N2CCC[C@@H](C)[C@H]2CNc2ccc(F)cn2)c1` [Example A47, ((2S,3R)-2-(((5-Fluoropyridin-2-yl)amino)methyl)-3-methylpiperidin-1-yl)(5-methyl-2-(2H-1,2,3-triazol-2-yl)phenyl)methanone] cannot be ordered by IC50: greater than 5 µM for the first, greater than 5 µM for the second.

First: Cc1ccc(NC[C@@H]2[C@H](C)CCCN2C(=O)c2cc(C)ccc2-n2nccn2)nc1 [Example A48, ((2S,3R)-3-Methyl-2-(((5-methylpyridin-2-yl)amino)methyl)piperidin-1-yl)(5-methyl-2-(2H-1,2,3-triazol-2-yl)phenyl)methanone]
Second: Cc1ccc(-n2nccn2)c(C(=O)N2CCC[C@@H](C)[C@H]2CNc2ccc(Cl)cn2)c1 [Example A78, ((2S,3R)-2-(((5-Chloropyridin-2-yl)amino)methyl)-3-methylpiperidin-1-yl)(5-methyl-2-(2H-1,2,3-triazol-2-yl)phenyl)methanone]
The IC50 of the first is higher: greater than 5 µM for the first, 2.9 µM for the second. The second is the more potent here.

`Cc1ccc(-c2ccccn2)c(C(=O)N2CCC[C@@H](C)[C@H]2CNc2ccc(F)cn2)c1` [Example A58, ((2S,3R)-2-(((5-Fluoropyridin-2-yl)amino)methyl)-3-methylpiperidin-1-yl)(5-methyl-2-(pyridin-2-yl)phenyl)methanone] and `Cc1ccc(NC[C@@H]2[C@H](C)CCCN2C(=O)c2cc(C)ccc2-c2ccccn2)nc1` [Example A59, ((2S,3R)-3-Methyl-2-(((5-methylpyridin-2-yl)amino)methyl)piperidin-1-yl)(5-methyl-2-(pyridin-2-yl)phenyl)methanone] cannot be ordered by IC50: 2.4 µM for the first, greater than 2 µM for the second.

`Cc1ccc(-c2ccccn2)c(C(=O)N2CCC[C@@H](C)[C@H]2CNc2ccc(C#N)cn2)c1` [Example A60, 6-((((2S,3R)-3-Methyl-1-(5-methyl-2-(pyridin-2-yl)benzoyl)piperidin-2-yl)methyl)amino)nicotinonitrile] and `Cc1ccc(-c2ccnn2C)c(C(=O)N2CCC[C@@H](C)[C@H]2CNc2ccc(F)cn2)c1` [Example A61, ((2S,3R)-2-(((5-Fluoropyridin-2-yl)amino)methyl)-3-methylpiperidin-1-yl)(5-methyl-2-(1-methyl-1H-pyrazol-5-yl)phenyl)methanone] cannot be ordered by IC50: greater than 5 µM for the first, greater than 5 µM for the second.

Going from `Cc1ccc(-n2nccn2)c(C(=O)N2CC3CCCC3C2CNc2ccc(C(F)(F)F)cn2)c1` (stereo not shown) [Example A69, (5-Methyl-2-(2H-1,2,3-triazol-2-yl)phenyl)(1-(((5-(trifluoromethyl)pyridin-2-yl)amino)methyl)hexahydrocyclopenta[c]pyrrol-2(1H)-yl)methanone] to `Cc1ccc(-c2cnn(C)c2)c(C(=O)N2CC3CCCC3C2CNc2ccc(C(F)(F)F)cn2)c1` (stereo not shown) [Example A71, (5-Methyl-2-(1-methyl-1H-pyrazol-4-yl)phenyl)(1-(((5-(trifluoromethyl)pyridin-2-yl)amino)methyl)hexahydrocyclopenta[c]pyrrol-2(1H)-yl)methanone], the IC50 rises from 1.4 µM to 3.6 µM (2.6-fold). The first is the more potent here.

Compared with `COc1c(F)cccc1C(=O)N1CCC[C@@H](C)[C@H]1CNc1ccc(C(F)(F)F)cn1` [Example A75, (3-Fluoro-2-methoxyphenyl)((2S,3R)-3-methyl-2-(((5-(trifluoromethyl)pyridin-2-yl)amino)methyl)piperidin-1-yl)methanone], `Cc1ccc(-n2nccn2)c(C(=O)N2CCC[C@@H](C)[C@H]2CNc2ncc(C(F)(F)F)cc2F)c1` [Example A82, ((2S,3R)-2-(((3-Fluoro-5-(trifluoromethyl)pyridin-2-yl)amino)methyl)-3-methylpiperidin-1-yl)(5-methyl-2-(2H-1,2,3-triazol-2-yl)phenyl)methanone] is lower in IC50: greater than 5 µM for the first, 0.84 µM for the second. The second is the more potent here.

`Cc1ccc(-n2nccn2)c(C(=O)N2CCC[C@@H](C)[C@H]2CNc2cccc(C)n2)c1` [Example A79, ((2S,3R)-3-Methyl-2-(((6-methylpyridin-2-yl)amino)methyl)piperidin-1-yl)(5-methyl-2-(2H-1,2,3-triazol-2-yl)phenyl)methanone] and `COc1cccc(NC[C@@H]2[C@H](C)CCCN2C(=O)c2cc(C)ccc2-n2nccn2)n1` [Example A80, ((2S,3R)-2-(((6-Methoxypyridin-2-yl)amino)methyl)-3-methylpiperidin-1-yl)(5-methyl-2-(2H-1,2,3-triazol-2-yl)phenyl)methanone] cannot be ordered by IC50: greater than 4 µM for the first, greater than 4 µM for the second.

Same assay, conditions: Table 6; racemate vs enantiomers; read-out: OX2 IC50

Molecule `Cc1nc(C(=O)N2CCC[C@H](C)[C@@H]2CNc2ccc(C(F)(F)F)cn2)c(-c2ccc(F)cc2)s1` [Example A43, (5-(4-Fluorophenyl)-2-methylthiazol-4-yl)((2R,3S)-3-methyl-2-(((5-(trifluoromethyl)pyridin-2-yl)amino)methyl)piperidin-1-yl)methanone] has an IC50 of 4 µM.
